Laboratory results taken from PubChem BioAssay AID2553 (Johns Hopkins Ion Channel Center, 2010).
The entries are a selection whose mix differs from that of the whole data set. Activity calls are given as the source filed them.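 The calls were made as follows: active = B-score under library mean minus 3 SD, initial fluorescence not abnormally high, positive integrated signal ratio; inactive = the rest.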

Chains of the proteins cited; added tags and fusions are not shown.
UniProt Q61143, whole entry: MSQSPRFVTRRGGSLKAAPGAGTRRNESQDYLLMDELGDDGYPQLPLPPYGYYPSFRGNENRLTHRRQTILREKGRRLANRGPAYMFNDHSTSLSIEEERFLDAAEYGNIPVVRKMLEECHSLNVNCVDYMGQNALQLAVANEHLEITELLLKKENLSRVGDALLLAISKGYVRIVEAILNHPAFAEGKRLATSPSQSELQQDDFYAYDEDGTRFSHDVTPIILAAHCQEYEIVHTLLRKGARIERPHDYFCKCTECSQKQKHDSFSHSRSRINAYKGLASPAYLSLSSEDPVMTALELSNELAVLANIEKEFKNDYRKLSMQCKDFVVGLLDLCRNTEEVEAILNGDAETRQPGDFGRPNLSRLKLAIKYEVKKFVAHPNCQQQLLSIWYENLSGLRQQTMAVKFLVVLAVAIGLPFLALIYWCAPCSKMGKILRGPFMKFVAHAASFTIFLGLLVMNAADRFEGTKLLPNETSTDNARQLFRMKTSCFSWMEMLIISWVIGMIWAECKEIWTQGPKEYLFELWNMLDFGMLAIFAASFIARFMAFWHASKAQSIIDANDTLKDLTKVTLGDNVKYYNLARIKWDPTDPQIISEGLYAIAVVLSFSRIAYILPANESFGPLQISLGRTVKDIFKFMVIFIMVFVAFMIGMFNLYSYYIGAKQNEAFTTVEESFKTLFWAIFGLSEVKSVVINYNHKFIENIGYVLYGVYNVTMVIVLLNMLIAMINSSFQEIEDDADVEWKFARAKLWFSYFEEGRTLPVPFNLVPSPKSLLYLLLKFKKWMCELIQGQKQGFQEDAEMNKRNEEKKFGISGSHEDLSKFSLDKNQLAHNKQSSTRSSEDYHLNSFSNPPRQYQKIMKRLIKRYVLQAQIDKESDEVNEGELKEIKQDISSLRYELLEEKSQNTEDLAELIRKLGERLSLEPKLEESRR

These compounds were tested against Short transient receptor potential channel 6 (Mus musculus) (UniProt Q61143) (assay: mouse TRPC6 channel inhibitors, primary screen, cell-based, HEK293, membrane potential dye (AID 2553;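 as to B-score: B-score derived from integrated fluorescence ratio over the kinetic read; more negative B-score means stronger inhibition of depolarization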)). Conditions: ACh-evoked depolarization, at 10 µM; active compounds read low.
`CCOC(=O)Nc1ccc([As](=O)(O)O)c(O)c1` was tested, and the outcome was “inactive”. For `CCCCOc1ccc(C(=O)NCC2(N3CCCCC3)CCCCC2)cc1OC`, the outcome was “inactive”. In the case of `Cc1cc(SC(NC(=O)c2ccccc2)C(Cl)(Cl)Cl)nc(C(C)C)n1` (centres undefined), the outcome is reported as “inactive”. For `CCOC(=O)Nc1cccc([As](=O)(O)O)c1`, the outcome was “inactive”. With `CP(=S)(Nn1cnnc1)Oc1ccccc1` (centres undefined) the outcome was “inactive”. `CP(=O)(Nc1ccccc1Br)Oc1ccccc1` (centres undefined) was tested, and the outcome was “inactive”. For `O=[N+]([O-])c1ccc(Nc2ccc(Oc3ccc([N+](=O)[O-])cc3[N+](=O)[O-])cc2)c([N+](=O)[O-])c1`, the outcome was “inactive”. With `O=P(Nc1ccccn1)(c1cccc2ccccc12)c1cccc2ccccc12` the outcome was “inactive”. With `Cc1cc(SC(NC=O)C(Cl)(Cl)Cl)ncn1` (centres undefined) the outcome was “inactive”. `COc1ccccc1OP(C)(=O)Nc1ccccc1` (centres undefined) was tested, and the outcome was “inactive”. In the case of `COP1(=S)c2c(C)nn(CCC#N)c2N=C(c2ccc(F)cc2)N1C` (centres undefined), the outcome is reported as “inactive”. With `Cc1cccc(C)c1OP(C)(=O)Nc1ccc(SC(F)(F)F)cc1` (centres undefined) the outcome was “inactive”. With `CP(=O)(Nc1ccc(SC(F)(F)F)cc1)Oc1ccc(Cl)cc1` (centres undefined) the outcome was “inactive”. With `CP(=O)(Oc1ccccc1)OC(c1ccccc1)C(F)(F)F` (centres undefined) the outcome was “inactive”. With `O=C(COc1ccccc1)OC1CN2CCC1CC2` (centres undefined) the outcome was “inactive”. For `CP(=O)(NC(=O)Nc1ccccc1)Oc1ccccc1` (centres undefined), the outcome was “inactive”. With `CCc1ccc(OP(C)(=O)N2CCN(c3ccc([N+](=O)[O-])cc3)CC2)cc1` (centres undefined) the outcome was “inactive”. In the case of `Cc1cc(C)cc(OP(C)(=O)Nc2ccc(SC(F)(F)F)cc2)c1` (centres undefined), the outcome is reported as “inactive”. With `O=C(Nc1ccncc1[N+](=O)[O-])c1ccc([N+](=O)[O-])cc1[N+](=O)[O-]` the outcome was “inactive”. With `CCOC(=O)c1ccc(NC(=O)C(C)(CCl)SC)cc1` (centres undefined) the outcome was “inactive”. With `CCOC(=O)c1ccc(NP(C)(=O)Oc2ccc(OC)cc2)cc1` (centres undefined) the outcome was “inactive”. For `O=[N+]([O-])c1cc([N+](=O)[O-])c(O)c([N+](=O)[O-])c1.c1ccc(Oc2ccncc2)cc1`, the outcome was “inactive”. In the case of `CCOP(C)(=S)SCC(=O)NC(C)C(=O)O` (centres undefined), the outcome is reported as “inactive”. For `O=C(OC1CN2CCC1CC2)c1cccc([N+](=O)[O-])c1` (centres undefined), the outcome was “inactive”. In the case of `CP(=O)(Nc1ccccn1)Oc1ccc(Cl)cc1` (centres undefined), the outcome is reported as “inactive”. `CCC(C)N(CC(C)C)C(=S)SC(NC(C)=O)C(Cl)(Cl)Cl` (centres undefined) was tested, and the outcome was “inactive”. In the case of `CCN(CC)CCCOC(=O)C(O)(c1ccccc1)c1ccccc1`, the B-score is reported as active: -11.1. `Cc1cc(=O)[nH]c(N[N+](=O)[O-])n1` was tested, and the outcome was “inactive”. With `Cc1c2c(nc3ccccc13)SC(C(Cl)Cl)C2` (centres undefined) the outcome was “inactive”. `COc1ccc2nc(NP(=O)(c3ccccc3)c3ccccc3)sc2c1` was tested, and the outcome was “inactive”. For `COc1cc(I)ccc1[As](=O)(O)O`, the outcome was “inactive”. For `COc1ccc(N/C(=N/P(=O)(N2CCOCC2)N2CCOCC2)N2CCOCC2)cc1`, the outcome was “inactive”. In the case of `O=[As](O)(c1ccc(O)cc1)c1ccccc1O`, the outcome is reported as “inactive”. In the case of `C[As](=O)(O)c1cccc(C(=O)O)c1`, the outcome is reported as “inactive”. In the case of `O=[N+]([O-])c1cc([N+](=O)[O-])c(Nc2cccnc2)c([N+](=O)[O-])c1`, the outcome is reported as “inactive”. With `O=[N+]([O-])c1ccc2c(c1)C=Nc1ccccc1O2` the outcome was “inactive”. With `Cc1ccc2nc3c(c(C)c2c1)CC(C(Cl)Cl)S3` (centres undefined) the outcome was “inactive”. For `Cc1ccc(OP(=O)(Nc2ccc([N+](=O)[O-])cn2)Oc2ccc(C)cc2)cc1`, the outcome was “inactive”. `CC(C)(C)c1ccc(OP(C)(=O)Nc2ccc(SC(F)(F)F)cc2)cc1` (centres undefined) was tested, and the outcome was “inactive”. For `Cc1cccc(C)c1OP(C)(N)=O` (centres undefined), the outcome was “inactive”. In the case of `COc1ccccc1OP(C)(=O)Nc1ccc(C)cc1` (centres undefined), the outcome is reported as “inactive”. In the case of `CC(C)c1ccc(OP(=O)(Nc2ccccn2)Oc2ccccc2F)cc1` (centres undefined), the outcome is reported as “inactive”. With `Cc1ccc(NP(C)(=O)Oc2ccccc2)c(C)c1` (centres undefined) the outcome was “inactive”. For `CCOC(=O)c1ccc(NP(C)(=O)Oc2ccccc2)cc1` (centres undefined), the outcome was “inactive”. In the case of `ClCCSc1nnc(-c2cccnc2)o1`, the outcome is reported as “inactive”. With `Cc1cc(C)cc(OP(C)(N)=O)c1` (centres undefined) the outcome was “inactive”. In the case of `COc1ccccc1OP(C)(=O)Nc1cc(Cl)ccc1C` (centres undefined), the outcome is reported as “inactive”. For `CC(C)NC(=O)NP(=O)(Oc1ccccc1)Oc1ccccc1`, the outcome was “inactive”. With `CCN(CC)C(=S)SC(NC=O)C(Cl)(Cl)Cl` (centres undefined) the outcome was “inactive”. `COc1ccc(OP(C)(=O)Nc2cccc(F)c2)cc1` (centres undefined) was tested, and the outcome was “inactive”. With `O=[N+]([O-])c1cc([N+](=O)[O-])c(-c2ccn[nH]2)s1` the outcome was “inactive”. For `CS(=O)(=O)c1cc([N+](=O)[O-])c2no[n+]([O-])c2c1`, the outcome was “inactive”. In the case of `CCOP1(=S)c2c(C)nn(CCC#N)c2N=C(c2ccccc2F)N1C` (centres undefined), the outcome is reported as “inactive”. In the case of `O=C(O)c1cccc(Nc2c([N+](=O)[O-])cc([N+](=O)[O-])cc2[N+](=O)[O-])c1`, the outcome is reported as “inactive”. `O=P(Nc1nccs1)(Oc1ccccc1)Oc1ccccc1` was tested, and the outcome was “inactive”. With `O=P(Nc1nccs1)(c1ccccc1)c1nc2ccccc2s1` (centres undefined) the outcome was “inactive”. With `Nc1ccccc1[As](=O)(O)c1ccccc1` the outcome was “inactive”. In the case of `O=C(O)COc1ccc([As](=O)(O)O)cc1[N+](=O)[O-]`, the outcome is reported as “inactive”. In the case of `NC(=O)Nc1ccc([As](=O)(O)O)cc1`, the outcome is reported as “inactive”. With `O=[N+]([O-])c1ccc2c(c1)nnn2O` the outcome was “inactive”. `CN(C)C(=O)c1cc([N+](=O)[O-])cc2c1-c1c(cc([N+](=O)[O-])cc1[N+](=O)[O-])C2=O` was tested, and the outcome was “inactive”. `CC1=NCCc2c1[nH]c1ccccc21.O=[N+]([O-])c1cc([N+](=O)[O-])c(O)c([N+](=O)[O-])c1` was tested, and the outcome was “inactive”. In the case of `CN(C(=O)Cc1ccc(Cl)c(Cl)c1)[C@H]1CC[C@@]2(CCCO2)C[C@@H]1N1CCCC1`, the outcome is reported as “inactive”. With `N#CCCN(C(=O)COC(=O)C(O)(c1ccccc1)c1ccccc1)c1ccc(F)cc1` the outcome was “inactive”. For `CN(C(=O)Cc1ccccc1)[C@@H]1CC[C@]2(CCCO2)C[C@H]1N1CCCC1`, the outcome was “inactive”. In the case of `CCOP1(=S)c2c(C)nn(CCC#N)c2N=C(c2ccc(F)cc2)N1C` (centres undefined), the outcome is reported as “inactive”. With `O=[As](O)(O)c1cccnc1` the outcome was “inactive”. `COc1cc(C(=O)NCC2(N3CCOCC3)CCCCC2)cc(Cl)c1OC(C)C` was tested, and the outcome was “inactive”. For `CS(=O)(=O)c1ccc(Cl)c(NC(=O)COC(=O)C(O)(c2ccccc2)c2ccccc2)c1`, the outcome was “inactive”. `COc1ccccc1OP(C)(=O)Nc1cccc(Br)c1` (centres undefined) was tested, and the outcome was “inactive”. In the case of `O=C(OC1CN2CCC1CC2)c1ccc(Cl)cc1` (centres undefined), the outcome is reported as “inactive”. With `CCOC(=O)c1ccc(NP(C)(=O)Oc2cc(C)cc(C)c2)cc1` (centres undefined) the outcome was “inactive”. With `Cc1cccc(OCC(=O)OC2CN3CCC2CC3)c1` (centres undefined) the outcome was “inactive”. `O=[As](O)(c1cccc(O)c1)c1cccc(O)c1` was tested, and the outcome was “inactive”. With `Cc1cc(C)cc(OP(C)(=O)Nc2ccc(C)cc2C)c1` (centres undefined) the outcome was “inactive”. For `Cc1ccc(C)c(NP(C)(=O)Oc2ccccc2)c1` (centres undefined), the outcome was “inactive”. With `CCCOP(=S)(Nc1nc(N)cc(=O)[nH]1)OCCC` the outcome was “inactive”. For `Cc1cc(C)cc(OP(C)(=O)Nc2ccccn2)c1` (centres undefined), the outcome was “inactive”. `CP(=O)(Nc1cccc(Br)c1)Oc1ccccc1` (centres undefined) was tested, and the outcome was “inactive”. With `Nc1cccc2c([As](=O)(O)O)cccc12` the outcome was “inactive”. For `Cc1ccc(NCCc2c([N+](=O)[O-])cc([N+](=O)[O-])cc2[N+](=O)[O-])cc1`, the outcome was “inactive”. For `CCOP(=O)(Nc1cccc2ccccc12)OCC`, the outcome was “inactive”. In the case of `CCOP(=O)(Nc1ccc(C)cn1)OCC`, the outcome is reported as “inactive”. With `CN(CCCl)Cc1cc(Cl)c(NC2=NCCN2)c(Cl)c1` the outcome was “inactive”. In the case of `O=P1(Nc2ccccn2)COc2ccccc2OC1`, the outcome is reported as “inactive”. With `O=[N+]([O-])c1cc([N+](=O)[O-])c(-n2nnc3ccccc32)c([N+](=O)[O-])c1` the outcome was “inactive”. For `CCOP(=O)(NC(=NC(C)c1ccccc1)NC(C)c1ccccc1)OCC` (centres undefined), the outcome was “inactive”. `Clc1n[nH]nc1-c1nn[nH][15n]1` was tested, and the outcome was “inactive”. For `CC(C)(C)C(=O)NC(Sc1ncccn1)C(Cl)(Cl)Cl` (centres undefined), the outcome was “inactive”. In the case of `COc1ccccc1CNC(=O)COC(=O)C(O)(c1ccccc1)c1ccccc1`, the outcome is reported as “inactive”. `O=[N+]([O-])c1cc([N+](=O)[O-])c(-c2cnn(-c3ccccc3)c2)c([N+](=O)[O-])c1` was tested, and the outcome was “inactive”. `O=[As](O)(c1ccccc1Br)c1ccccc1Br` was tested, and the outcome was “inactive”. With `CC1(CBr)Cn2c(nc3ccccc3c2=O)S1` (centres undefined) the outcome was “inactive”. With `CC(C)/C=N\N=C(\N)N[N+](=O)[O-]` the outcome was “inactive”. For `CN(C(=O)Cc1ccc(Cl)c(Cl)c1)[C@@H]1CCCC[C@H]1N1CCCC1`, the outcome was “inactive”. With `COc1cc(C2NCCC3(OCCO3)C2(C)C)cc(OC)c1OC.O=[N+]([O-])c1cc([N+](=O)[O-])c(O)c([N+](=O)[O-])c1` (centres undefined) the outcome was “inactive”. `Cc1nn(-c2ccccc2)c2c1P(=O)(N1CCOCC1)N(C)C(c1ccccc1)=N2` (centres undefined) was tested, and the outcome was “inactive”. In the case of `CC1CCC(C(C)C)C(OP(=O)(Nc2ccccn2)c2ccccc2)C1` (centres undefined), the outcome is reported as “inactive”. With `Cc1ccc(C(=O)OC2CN3CCC2CC3)cc1` (centres undefined) the outcome was “inactive”. `O=C(/C=C/c1ccccc1)OC1CN2CCC1CC2` (centres undefined) was tested, and the outcome was “inactive”. With `CN(C)C1(CNC(=O)c2ccc(S(C)(=O)=O)cc2)CCCCC1` the outcome was “inactive”. In the case of `O=[N+]([O-])c1cc([N+](=O)[O-])c(Nc2nnnn2CCO)c([N+](=O)[O-])c1`, the outcome is reported as “inactive”. With `CCOC(=O)C(CC)C1=NC(C)(C)Cc2ccccc21.O=[N+]([O-])c1cc([N+](=O)[O-])c(O)c([N+](=O)[O-])c1` (centres undefined) the outcome was “inactive”. With `COc1ccccc1OP(C)(=O)Nc1c(C)cccc1C` (centres undefined) the outcome was “inactive”. With `CN1CCCCC1COC(=O)C1(O)c2ccccc2CCc2ccccc21` (centres undefined) the outcome was “inactive”. `O=P1(Nc2ncccn2)COc2ccccc2OC1` was tested, and the outcome was “inactive”. With `O=[As](O)(c1cccs1)c1cccs1` the outcome was “inactive”. `Cc1ccc(OCC(=O)OC2CN3CCC2CC3)cc1` (centres undefined) was tested, and the outcome was “inactive”. `O=P1(Nc2ccc(Br)cn2)COc2ccccc2OC1` was tested, and the outcome was “inactive”. For `CCCOc1ccc(NP(C)(=O)Oc2ccc(Cl)cc2)cc1` (centres undefined), the outcome was “inactive”. `Nc1cccc([As](=O)(O)c2ccccc2)c1` was tested, and the outcome was “inactive”. For `CP(=O)(Nc1ccc(SC(F)(F)F)cc1)Oc1ccccc1` (centres undefined), the outcome was “inactive”. With `COc1ccc(OP(C)(=O)Nc2cccc(Br)c2)cc1` (centres undefined) the outcome was “inactive”. In the case of `O=P(Nc1ccccn1)(c1ccc(Br)cc1)c1ccc(Br)cc1`, the outcome is reported as “inactive”.
